Each structure is given as a SMILES string. This is a selection; strong and weak results do not stand in their true shares. The source made the active and inactive calls.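 The calls were made as follows: active = inhibition above a cutoff: mean of compounds within the control limits plus 3 SD of those (cut at about 17% in these data); inactive = the rest.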

Sequences of proteins named here, by UniProt entry; tags and fusion partners are left off. A change or cut given only in a name is not applied to a line headed by its entry.
UniProt Q9HAT2: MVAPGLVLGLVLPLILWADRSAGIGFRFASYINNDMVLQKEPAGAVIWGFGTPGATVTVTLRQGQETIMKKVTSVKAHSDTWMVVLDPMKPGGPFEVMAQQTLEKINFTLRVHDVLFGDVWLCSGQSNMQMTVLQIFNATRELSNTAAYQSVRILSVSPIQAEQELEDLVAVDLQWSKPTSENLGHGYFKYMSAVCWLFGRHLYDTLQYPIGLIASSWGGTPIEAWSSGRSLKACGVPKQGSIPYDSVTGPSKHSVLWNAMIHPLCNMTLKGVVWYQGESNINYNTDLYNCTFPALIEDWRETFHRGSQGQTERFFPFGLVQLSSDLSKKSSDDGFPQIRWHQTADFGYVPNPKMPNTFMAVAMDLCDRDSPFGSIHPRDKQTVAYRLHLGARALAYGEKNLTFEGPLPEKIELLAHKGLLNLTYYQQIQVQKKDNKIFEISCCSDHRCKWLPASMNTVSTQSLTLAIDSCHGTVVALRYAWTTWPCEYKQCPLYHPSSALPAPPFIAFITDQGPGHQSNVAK

A word on the inhibition: it is the change of the read-out against control, counted positive when it falls.

The assay has as its target Sialate O-acetylesterase (Homo sapiens) (UniProt Q9HAT2). Kind of assay: human SIAE inhibitors, primary screen, biochemical, fluorescence polarization, FP-Rh probe, 1536-well HTS (AID 1053197).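 Also: 0% = plate median of compound wells and 100% = probe without SIAE protein.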 To be noted: SIAE FP-Rh probe binding, at 9.66 µM, hits give high values.
Take `O=C(O)COc1ccc([As](=O)(O)O)cc1[N+](=O)[O-]`: the inhibition was inactive: 0.82%. On to `Nc1ccccc1[As](=O)(O)c1ccccc1`, for which the inhibition was inactive: -3.57%. With `O=P(Nc1nccs1)(Oc1ccccc1)Oc1ccccc1`, the inhibition was inactive: -7.13%. The same measure for `CCOP1(=S)c2c(C)nn(CCC#N)c2N=C(c2ccccc2F)N1C` (centres undefined): inactive: -2.03%; for `CN(C(=O)Cc1ccc(Cl)c(Cl)c1)[C@H]1CC[C@@]2(CCCO2)C[C@@H]1N1CCCC1`: inactive: -7.12%. As to `O=[N+]([O-])c1ccc2c(c1)nnn2O`, the inhibition is inactive: 1.54%. Next, `CN(C)C(=O)c1cc([N+](=O)[O-])cc2c1-c1c(cc([N+](=O)[O-])cc1[N+](=O)[O-])C2=O`: inactive: -2.91%; `CCOP1(=S)c2c(C)nn(CCC#N)c2N=C(c2ccc(F)cc2)N1C` (centres undefined): inactive: 4.29%. As for `CN(C(=O)Cc1ccccc1)[C@@H]1CC[C@]2(CCCO2)C[C@H]1N1CCCC1`, the inhibition is inactive: 0.33%.

For the compound `N#CCCN(C(=O)COC(=O)C(O)(c1ccccc1)c1ccccc1)c1ccc(F)cc1`, the inhibition was inactive: -1%. On to `NC(=O)Nc1ccc([As](=O)(O)O)cc1`, for which the inhibition is inactive: 5.84%. Consider `Cc1cccc(OCC(=O)OC2CN3CCC2CC3)c1` (centres undefined), for which the inhibition was inactive: -0.67%. On to `O=[As](O)(c1cccc(O)c1)c1cccc(O)c1`, for which the inhibition was inactive: -0.84%. On to `CS(=O)(=O)c1ccc(Cl)c(NC(=O)COC(=O)C(O)(c2ccccc2)c2ccccc2)c1`, for which the inhibition was inactive: -1.23%. Regarding `O=[As](O)(O)c1cccnc1`, the inhibition was inactive: -3.35%. Turning to `COc1cc(C(=O)NCC2(N3CCOCC3)CCCCC2)cc(Cl)c1OC(C)C`, the inhibition was inactive: -11.6%. Take `O=C(OC1CN2CCC1CC2)c1ccc(Cl)cc1` (centres undefined): the inhibition is inactive: -3.43%. The same measure for `CCOP(=O)(Nc1cccc2ccccc12)OCC`: inactive: 5.52%.

Take `COc1cc(C2NCCC3(OCCO3)C2(C)C)cc(OC)c1OC` (centres undefined): the inhibition was inactive: 15.6%. On to `CCCOP(=S)(Nc1nc(N)cc(=O)[nH]1)OCCC`, for which the inhibition is inactive: -2.86%. Next, `Cc1ccc(NCCc2c([N+](=O)[O-])cc([N+](=O)[O-])cc2[N+](=O)[O-])cc1`: active: 31.8%; `Nc1cccc2c([As](=O)(O)O)cccc12`: active: 34.4%; `CC(C)(C)C(=O)NC(Sc1ncccn1)C(Cl)(Cl)Cl` (centres undefined): inactive: 1.17%. Next, `Clc1n[nH]nc1-c1nn[nH][15n]1`: inactive: -11.4%; `O=P1(N(CCCl)CCCl)NCCC(C(F)(F)F)O1` (centres undefined): inactive: -8.37%. For the compound `CCOP(=O)(Nc1ccc(C)cn1)OCC`, the inhibition was inactive: -9.55%. On to `CN(CCCl)Cc1cc(Cl)c(NC2=NCCN2)c(Cl)c1`, for which the inhibition was inactive: -2.37%. Regarding `CCOP(=O)(NC(=NC(C)c1ccccc1)NC(C)c1ccccc1)OCC` (centres undefined), the inhibition is inactive: 1.72%. `CCC1=CC2Cc3nc4ccc(Cl)cc4c(N)c3C(C1)C2` (centres undefined): the inhibition was inactive: -0.78%. Turning to `O=P1(Nc2ccccn2)COc2ccccc2OC1`, the inhibition is inactive: 0.15%. As for `CC1(CBr)Cn2c(nc3ccccc3c2=O)S1` (centres undefined), the inhibition was inactive: 1.12%. As to `CN(C(=O)Cc1ccc(Cl)c(Cl)c1)C1CCCC[C@@H]1N1CCCC1` (some centres undefined), the inhibition is inactive: -5.46%. As to `CN(C(=O)Cc1ccc(Cl)c(Cl)c1)[C@@H]1CCCC[C@H]1N1CCCC1`, the inhibition is inactive: -2.62%. Next, `CC(C)/C=N\N=C(\N)N[N+](=O)[O-]`: inactive: 5.87%. `COc1ccccc1CNC(=O)COC(=O)C(O)(c1ccccc1)c1ccccc1`: the inhibition is inactive: 1.53%. For the compound `CCCC1OP(=O)(Nc2ccccc2)OCC1CC` (centres undefined), the inhibition was inactive: 0.07%.

As for `O=C(/C=C/c1ccccc1)OC1CN2CCC1CC2` (centres undefined), the inhibition is inactive: 2.07%. With `CN(C)C1(CNC(=O)c2ccc(S(C)(=O)=O)cc2)CCCCC1`, the inhibition is inactive: 3.32%.

Take `Cc1ccc(C(=O)OC2CN3CCC2CC3)cc1` (centres undefined): the inhibition was inactive: 10.5%. For the compound `CC1CCC(C(C)C)C(OP(=O)(Nc2ccccn2)c2ccccc2)C1` (centres undefined), the inhibition was inactive: -2.7%. In the case of `Cc1nn(-c2ccccc2)c2c1P(=O)(N1CCOCC1)N(C)C(c1ccccc1)=N2` (centres undefined), the inhibition is inactive: -0.31%.

As to `Cc1ccc(OCC(=O)OC2CN3CCC2CC3)cc1` (centres undefined), the inhibition was inactive: 0.16%. For the compound `O=[As](O)(c1cccs1)c1cccs1`, the inhibition was inactive: -4.29%. Turning to `NS(=O)(=O)c1cccc(NC(=O)COC(=O)C(O)(c2ccccc2)c2ccccc2)c1`, the inhibition is inactive: -4.85%.

Turning to `O=P1(Nc2ccc(Br)cn2)COc2ccccc2OC1`, the inhibition is inactive: 4.1%. Turning to `Nc1cccc([As](=O)(O)c2ccccc2)c1`, the inhibition is inactive: 3.55%.

Regarding `O=P1(Nc2ncccn2)COc2ccccc2OC1`, the inhibition is inactive: -0.68%. Turning to `Cc1ccc(S(=O)(=O)N(CCCN)CCCc2c(C)nc(N)[nH]c2=O)cc1`, the inhibition is inactive: 5.48%. The same measure for `Cc1cc(SC(NC(=O)c2ccccc2)C(Cl)(Cl)Cl)nc(C(C)C)n1` (centres undefined): inactive: 3.4%; for `CCCCOc1ccc(C(=O)NCC2(N3CCCCC3)CCCCC2)cc1OC`: inactive: 10.9%. Next, `COP(=O)(OC)N1CC1c1ccccc1` (centres undefined): inactive: 6.19%; `CC1CCNP(=O)(N(CCCl)CCCl)O1` (centres undefined): inactive: -0.57%; `O=C(O)C(O)c1ccc(N(CCCl)CCCl)cc1` (centres undefined): inactive: -2.41%. On to `CCOC(=O)Nc1ccc([As](=O)(O)O)c(O)c1`, for which the inhibition was inactive: 7.88%. Next, `O=[N+]([O-])c1ccc(Nc2ccc(Oc3ccc([N+](=O)[O-])cc3[N+](=O)[O-])cc2)c([N+](=O)[O-])c1`: inactive: -5.49%; `Cc1cc(SC(NC=O)C(Cl)(Cl)Cl)ncn1` (centres undefined): inactive: 2.97%; `O=P(Nc1ccccn1)(c1cccc2ccccc12)c1cccc2ccccc12`: inactive: -6.35%.

In the case of `CCOC(=O)Nc1cccc([As](=O)(O)O)c1`, the inhibition was inactive: 2.87%. Next, `O=C(Nc1ccncc1[N+](=O)[O-])c1ccc([N+](=O)[O-])cc1[N+](=O)[O-]`: inactive: 1.18%; `O=C(COc1ccccc1)OC1CN2CCC1CC2` (centres undefined): inactive: -4.99%. `O=C(O)C(=O)c1ccc(N(CCCl)CCCl)cc1`: the inhibition was inactive: -1.21%. For `COC(=O)C1(C)COP(=O)(N2CCCC2)OC1` (centres undefined), the inhibition is inactive: -1%. Turning to `COP1(=S)c2c(C)nn(CCC#N)c2N=C(c2ccc(F)cc2)N1C` (centres undefined), the inhibition is inactive: 15.9%.

On to `CCC(C)N(CC(C)C)C(=S)SC(NC(C)=O)C(Cl)(Cl)Cl` (centres undefined), for which the inhibition is inactive: -4.77%.

Source of the values: PubChem BioAssay AID1053197 (The Scripps Research Institute Molecular Screening Center, 2014).
